PubChem BioAssay AID1022 (Emory University Molecular Libraries Screening Center, 2008)
The entries are a selection whose mix differs from that of the whole data set. Active and inactive are the calls of the source.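 How the source made its calls: active means compounds that cut the protein-peptide binding signal by more than 50% relative to plate controls in a single-dose test; inactive means the rest.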

By UniProt entry, the sequences of proteins in these tests, tags left out.
UniProt Q07820, whole entry: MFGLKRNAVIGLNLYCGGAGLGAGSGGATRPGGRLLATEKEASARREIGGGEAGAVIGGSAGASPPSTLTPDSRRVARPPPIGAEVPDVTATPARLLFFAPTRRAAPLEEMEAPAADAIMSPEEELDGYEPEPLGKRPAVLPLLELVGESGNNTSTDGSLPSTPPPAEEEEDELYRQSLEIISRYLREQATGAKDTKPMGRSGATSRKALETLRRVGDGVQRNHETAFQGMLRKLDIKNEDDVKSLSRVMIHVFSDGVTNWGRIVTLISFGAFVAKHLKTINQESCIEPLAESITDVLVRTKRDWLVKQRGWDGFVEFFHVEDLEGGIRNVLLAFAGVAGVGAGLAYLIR

target: Induced myeloid leukemia cell differentiation protein Mcl-1 (Homo sapiens) (UniProt Q07820); experiment: Mcl-1/Noxa binding inhibitors, primary screen, biochemical, TR-FRET, 1536-well (AID 1022); conditions: TR-FRET Mcl-1/Noxa peptide binding, 2 h; at 21.7 µM; stronger effect = higher value;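 further: His-tagged Mcl-1 with rhodamine Noxa BH3 peptide and terbium anti-His antibody; 0% = Mcl-1 plus Noxa peptide wells and 100% = peptide-only wells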

Compound	inhibition
c1ccc(CN2CCC(Nc3ccccc3)CC2)cc1	inactive: -4.09%
N#Cc1ccc(C(=O)NCC2(N3CCCCC3)CCCCC2)cc1	inactive: -11.8%
N/C(=N\O)c1c(N)no[n+]1[O-]	inactive: 0.96%
O=C(OC1CN2CCC1CC2)C1c2ccccc2C=Cc2ccccc21 (centres undefined)	inactive: -0.51%
COc1ccc(C(=O)NCC2(N3CCOCC3)CCCCC2)cc1OC	inactive: 18.4%
CCC(CO)(C(=O)OC1CN2CCC1CC2)c1ccccc1 (centres undefined)	inactive: 8.68%
COc1cc(OC)cc(C(=O)NCC2(N3CCOCC3)CCCCC2)c1	inactive: -5.09%
CCCOc1ccc(C)cc1CN(CCCl)CCCl	inactive: 20.7%
CCOc1ncccc1C(=O)NCC1(N2CCOCC2)CCCCC1	inactive: -8.04%
CC(C)(C)OC(=O)N1CCC(Nc2ccccc2)CC1	inactive: 16.1%
CCN1CCC(Nc2cccc(F)c2)CC1	inactive: 42.7%
CN(C)c1ccc(C(=O)NCC2(N3CCCCC3)CCCCC2)cc1	inactive: 2.49%
Fc1ccccc1NC1CCN(Cc2ccccc2)CC1	inactive: 19.5%
Cc1ccc(OCC(C)C)c(CN(CCCl)CCCl)c1	inactive: 35.9%
CCOc1ccc(C)cc1CN(CCCl)CCCl	inactive: 32.1%
COc1ccc(NC2CCN(CCc3ccccc3)CC2)c(OC)c1	inactive: 22.9%
O=C(NCC1(N2CCOCC2)CCCCC1)c1cc2ccccc2o1	inactive: 9.2%
CCOC(=O)N1CCC(Nc2ccc(OC)cc2)CC1	inactive: 36.8%
N#CC1(Nc2ccccc2)CCN(Cc2ccccc2)CC1	inactive: 5.75%
O=C(OC1CN2CCC1CC2)C1c2ccccc2Oc2ccccc21 (centres undefined)	inactive: 23.4%
COc1ccc(C(=O)NCC2(N3CCCCC3)CCCCC2)c(OC)c1OC	inactive: 5.02%
COc1ccc(CN(CCCl)CCCl)cc1Cl	inactive: 19.6%
CN(C)c1cccc(C(=O)NCC2(N3CCCCC3)CCCCC2)c1	inactive: -10.6%
CC(C)c1ccc(NC2CCN(C(=O)OC(C)(C)C)CC2)cc1	inactive: 29.3%
COc1ccc(NC2CCN(C(=O)OC(C)(C)C)CC2)cc1	inactive: 36.8%
CN1CCN(CCOC(=O)C(O)(c2ccccc2)c2ccccc2)CC1	inactive: 13.2%
O=C(NCC1(N2CCOCC2)CCCCC1)c1cc(=O)[nH]c2ccccc12	inactive: -7.52%
O=C(NCC1(N2CCCCC2)CCCCC1)c1cccc([N+](=O)[O-])c1	inactive: 16.7%
N#CC1(Nc2ccccc2)CCN(CCc2ccccc2)CC1	inactive: 10.4%
